{"source": "patent US11737461B2", "about": "“Citrate perhydrates and uses thereof” (BIOREM ENGINEERING SA, priority 2018, dated 2023)", "key": {"[1]": {"details": "below 140° C., nitrogen, 10° C./min"}, "[2]": {"assay": "pH of an aqueous solution of the compound (pH meter)", "assay_type": "physicochemical"}}, "data": [{"substance": "anhydrous disodium citrate monoperhydrate [disodium citrate perhydrate]", "values": [{"measurement": "TGA mass loss", "setting": "[1]", "result": "less than 1%"}, {"measurement": "pH of an aqueous solution", "setting": "[2]; diluted 20× in water", "result": "5.2 (±0.3)"}, {"measurement": "pH", "setting": "[2]; sample solution of Table 13 (0.2 M H2O2 and/or citrate)", "result": 4.9}]}]}
